Reference: patent US4238566A (priority 1980, dated 1980)

Amino acid sequences for entries named in this document (tags omitted).
UniProt P80457, whole entry: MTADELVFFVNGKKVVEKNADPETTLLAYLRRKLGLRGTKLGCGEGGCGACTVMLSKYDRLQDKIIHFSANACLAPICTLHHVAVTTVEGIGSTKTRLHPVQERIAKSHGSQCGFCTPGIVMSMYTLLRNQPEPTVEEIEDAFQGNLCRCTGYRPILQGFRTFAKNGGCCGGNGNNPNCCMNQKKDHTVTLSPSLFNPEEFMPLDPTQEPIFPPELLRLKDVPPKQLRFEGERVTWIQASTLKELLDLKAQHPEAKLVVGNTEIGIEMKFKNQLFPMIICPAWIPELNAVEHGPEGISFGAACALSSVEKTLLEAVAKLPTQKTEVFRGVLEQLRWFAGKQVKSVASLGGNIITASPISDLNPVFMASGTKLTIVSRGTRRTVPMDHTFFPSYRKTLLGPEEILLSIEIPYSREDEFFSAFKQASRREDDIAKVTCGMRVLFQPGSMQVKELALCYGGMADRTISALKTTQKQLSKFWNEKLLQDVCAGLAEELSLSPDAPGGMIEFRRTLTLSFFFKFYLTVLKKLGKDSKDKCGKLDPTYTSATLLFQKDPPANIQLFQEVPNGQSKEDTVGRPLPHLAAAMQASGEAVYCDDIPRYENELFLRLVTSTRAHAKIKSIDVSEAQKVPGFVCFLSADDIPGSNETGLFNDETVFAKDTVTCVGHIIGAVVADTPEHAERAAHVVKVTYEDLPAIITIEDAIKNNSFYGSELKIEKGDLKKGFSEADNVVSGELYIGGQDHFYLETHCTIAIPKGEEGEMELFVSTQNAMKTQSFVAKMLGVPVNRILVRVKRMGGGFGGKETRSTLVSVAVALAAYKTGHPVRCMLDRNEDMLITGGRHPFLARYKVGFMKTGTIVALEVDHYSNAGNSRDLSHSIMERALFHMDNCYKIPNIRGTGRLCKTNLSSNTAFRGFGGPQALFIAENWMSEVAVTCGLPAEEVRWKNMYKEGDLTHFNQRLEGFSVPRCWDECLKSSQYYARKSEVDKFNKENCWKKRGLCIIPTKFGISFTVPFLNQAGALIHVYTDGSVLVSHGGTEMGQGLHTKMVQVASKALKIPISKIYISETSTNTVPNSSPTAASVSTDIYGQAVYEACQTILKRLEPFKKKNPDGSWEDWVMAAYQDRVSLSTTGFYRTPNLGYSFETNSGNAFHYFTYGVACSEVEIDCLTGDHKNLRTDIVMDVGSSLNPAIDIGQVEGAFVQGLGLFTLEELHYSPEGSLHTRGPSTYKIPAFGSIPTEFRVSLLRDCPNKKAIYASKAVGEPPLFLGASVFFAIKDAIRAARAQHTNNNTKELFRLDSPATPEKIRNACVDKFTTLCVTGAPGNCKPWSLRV

How the values were obtained:
Type in all cases: biochemical
Details in all cases: read-out: KI with pterin-6-carboxylic acid
[1] = biological target: T1, Bovine milk xanthine oxidase (E.C. 1.2.3.2.), XO concentrate by prior art 1 (Horecker and Heppel 1955), E280/E450 ratio 6.1 (Bos taurus, UniProt P80457); experiment: Kinetic parameters (Km, Vmax, KI) of XO concentrate prepared by prior art method of Horecker and Heppel
T1 construct: Bovine milk XO was purified using three different methods; from tissue; host or cells: bovine milk (purified in-house by the method of Horecker and Heppel 1955)
Protocol: (§1) Bovine milk XO was purified using three different methods and the purified XO enzyme concentrate preparation from each method was assayed for its kinetic parameters.
(§2) The first method used was that of Horecker and Heppel (Methods in Enzymology, Vol. 2, pp. 482-485, 1955). […] The second method was that of Waud et al. (Arch. Biochem. and Biophys., Vol. 169, pp. 695-701, 1975). […] The third method was that described above for the preparation of the XO concentrate of this invention.
(§3) The concentration of the substrate was varied over a gradient of initial concentrations of one to nine millimolar. […] Three replicates of each assay were performed at each concentration of substrate. Buffer pH was monitored constantly and the percent oxygen saturation was maintained at approximately 75%. Lineweaver-Burk and Hanes plots were then constructed from the collected data.
(§4) Lineweaver-Burk and Hanes plots were constructed from the data and both Km and Vmax determined therefrom.
(§5) Experimental conditions for this part of the study were similar to the preceding experiments. […] From the collected data, Lineweaver-Burk plots for competitive inhibition were constructed.

[2] = biological target: T2, Bovine milk xanthine oxidase (E.C. 1.2.3.2.), XO concentrate of this invention, E280/E450 ratio 2.0 to 4.1 (Bos taurus, UniProt P80457); experiment: Kinetic parameters (Km, Vmax, KI) of XO concentrate of this invention
T2 construct: Bovine milk XO was purified using three different methods; from tissue; host or cells: bovine milk (purified in-house by the method of the invention)
Protocol: as §1, §2, §3, §4, §5

[3] = biological target: T3, Bovine milk xanthine oxidase (E.C. 1.2.3.2.), XO concentrate by prior art 2 (Waud et al. 1975), E280/E450 ratio 4.8 (Bos taurus, UniProt P80457); experiment: Kinetic parameters (Km, Vmax, KI) of XO concentrate prepared by prior art method of Waud et al.
T3 construct: Bovine milk XO was purified using three different methods; from tissue; host or cells: bovine milk (purified in-house by the method of Waud et al. 1975)
Protocol: as §1, §2, §3, §4, §5

Nc1nc2ncc(C(=O)O)nc2c(=O)[nH]1 [pterin-6-carboxylic acid]
Ki [1]: 1.5 µM
Ki [2]: 1 µM
Ki [3]: 1.45 µM
